Among the data in ChEMBL document CHEMBL3244044, “Synthesis and antitumor activity of halogen-substituted 4-(3,3-dimethyl-1-triazeno)quinolines” (J Med Chem, 1978) are Survival and T/C values, retold here.

Holding throughout (conditions): route intraperitoneal
The test system of experiment [1] is B16. As to the kind of experiment: Antitumor activity against mouse B16 cells allografted mouse assessed as host survival at 77.8 mg/kg, ip qd for 9 days relative to control.
Experiment [2] concerns B16. As to the kind of experiment: Antitumor activity against mouse B16 cells allografted mouse assessed as host survival at 216 mg/kg, ip qd for 9 days relative to control.
Experiment [3] concerns B16. Kind of experiment: Antitumor activity against mouse B16 cells allografted mouse assessed as host survival at 130 mg/kg, ip qd for 9 days relative to control.

Each structure is given as a SMILES string.

In the case of `NC(=O)c1nc[nH]c1/N=N/N(CCCl)CCCl`, the results for the Survival with B16 [1], in the experiment on B16 [2] and with B16 [3] were 25 days, 15.3 days and 32.8 days, respectively. Moreover, the T/C in the experiment with B16 [1] is 119%; in the experiment on B16 [2], 73%; with B16 [3], 156%.
